Target: ORL1 receptor (Homo sapiens, UniProt P41146)
Experiment: ORL1 receptor binding assay with 3H-nociceptin/Orphanin FQ
Details: membranes of recombinant CHO-ORL1 cells; 0.5 nM 3H-nociceptin/Orphanin FQ

By UniProt entry, the sequences of proteins in these tests, tags left out. Where a name states a change or a piece, a line headed by the entry shows the natural chain unless it says otherwise.
UniProt P41146: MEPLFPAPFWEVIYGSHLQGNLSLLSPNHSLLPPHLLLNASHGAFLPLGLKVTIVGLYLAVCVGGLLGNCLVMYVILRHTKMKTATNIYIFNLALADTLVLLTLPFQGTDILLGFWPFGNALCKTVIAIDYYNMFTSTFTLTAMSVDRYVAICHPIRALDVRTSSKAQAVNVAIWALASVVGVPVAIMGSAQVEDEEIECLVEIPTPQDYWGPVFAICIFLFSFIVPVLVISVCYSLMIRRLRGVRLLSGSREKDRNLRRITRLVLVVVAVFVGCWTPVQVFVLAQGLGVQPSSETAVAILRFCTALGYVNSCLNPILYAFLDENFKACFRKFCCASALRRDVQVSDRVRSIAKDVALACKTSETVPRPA

SMILES | Ki [nM]
CN(C)C1(c2ccccc2)CCC(O)(c2cc3ccccc3o2)CC1 (stereo not drawn) | 66
CN(C)C1(c2ccccc2)CCC(O)(c2csc3ccccc23)CC1 (stereo not drawn) | 3.4
CN(C)C1(c2ccccc2)CCC(O)(c2nc3ccccc3s2)CC1 (stereo not drawn) | 430
CN(C)C1(c2ccccc2)CCC(O)(c2cc3ccccc3s2)CC1 (stereo not drawn) | 7.2
CN(C)C1(c2ccccc2)CCC(O)(c2cc3ccccc3n2S(=O)(=O)c2ccccc2)CC1 (stereo not drawn) | 110
CN(C)C1(c2ccccc2)CCC(O)(c2cc3ccccc3n2C)CC1 (stereo not drawn) | 24

Reference: patent publication US7183436B2, “Substituted 4-aminocyclohexanols” (dated 2007)
